US8138140B2, “Self-assembling peptide amphiphiles and related methods for growth factor delivery” (Northwestern University, priority 2003, dated 2012)

Experiment: Acid-base (pKa) titrations of PA aggregates
Details: 3 mM, aggregated state

With “C15H31CONHVal-Val-Val-Ala-Ala-Ala-Lys-Lys-Lys-COOH [PA 1]” the “apparent pKa of aggregates (titration curve)” value was “complex curves with transitions occurring over wide ranges”.
